# Biological target: GDP-loaded HIS-KRAS (G12D, aa 1-169) (Homo sapiens, UniProt P01116, G12D)
# The chains behind the UniProt entries cited, without tags or fusion partners. Residues count along the entry.
# UniProt P01116, 1-169 isoform 2 G12D limits assumed: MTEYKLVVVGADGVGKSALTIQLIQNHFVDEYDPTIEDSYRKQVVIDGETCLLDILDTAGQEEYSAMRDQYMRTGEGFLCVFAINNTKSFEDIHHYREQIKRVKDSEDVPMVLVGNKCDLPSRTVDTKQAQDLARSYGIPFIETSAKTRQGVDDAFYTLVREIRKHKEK
# Experiment: SOS1 catalyzed nucleotide exchange assay
# Details: read-out: Nucleotide exchange IC50, SOS1 ExD, TR-FRET, 4 hours at 25° C., tested form: TFA
# Protocol: 1. SOS1 Catalyzed Nucleotide Exchange Assay
# GDP-loaded HIS-KRAS (G12D, aa 1-169) was pre-incubated with a compound in the presence of 10 nM GDP in a 384-well plate (Greiner) for 15 min, then purified SOS1 ExD (Flag tag, aa 564-1049), BODIPY™ FL GTP (Invitrogen) and MAb (monoclonal antibody) Anti 6HIS-Tb cryptate Gold (Cisbio) were added to the assay wells (Final concentration: 1.5 nM GDP-loaded HIS-KRAS (G12D), 5 nM GDP, 0.5 μM SOS1 ExD, 80 nM BODIPY™ FL GTP, 52.5 ng/mL MAb Anti 6HIS-Tb cryptate Gold) and incubated for 4 hours at 25° C. Wells containing same percent of DMSO served as vehicle control, and wells without KRAS served as low control. TR-FRET signals were read on Tecan Spark multimode microplate reader. The parameters were F486: Excitation 340 nm, Emission 486 nm, Lag time 100 μs, Integration time 200 μs; F515: Excitation 340 nm, Emission 515 nm, Lag time 100 μs, Integration time 200 μs. TR-FRET ratios for each individual wells were calculated by equation: TR-FRET ratio=(Signal F515/Signal F486)*10000. The percent of activation of compounds treated wells were normalized between vehicle control and low control (% Activation=(TR-FRET ratioCompound treated−TR-FRET ratioLow control)/(TR-FRET ratioVehicle control−TR-FRET ratioLow control)*100%). Then the data were analyzed either by fitting a 4-parameter logistic model or by Excel to calculate IC50 values.
row,Structure (SMILES),IC50 [nM]
1,C#Cc1cccc2cc(O)cc(-c3cc4nc(OCC5(CN6CCOCC6)CC5)nc(N5CC6CCC(C5)N6)c4cc3C3CC3)c12,66.8
2,C#Cc1cccc2cc(O)cc(-c3cc(F)c4c(N5CC6CCC(C5)N6)nc(OCC5(CN6CCOCC6)CC5)nc4c3F)c12,11.1
3,CSc1cccc2cc(O)cc(-c3ccc4c(N5CC6CCC(C5)N6)nc(OCC5(CN6CCOCC6)CC5)nc4c3F)c12,9.31
4,C#Cc1cccc2cc(O)cc(-c3ccc4c(N5C6CCC5CNC6)nc(OCC5(CN6CCOCC6)CC5)nc4c3F)c12,14
5,C#Cc1c(C)ccc2cc(O)cc(-c3ccc4c(N5CC6CCC(C5)N6)nc(OCC5(CN6CCOCC6)CC5)nc4c3F)c12,11.8
6,"C#Cc1cccc2cc(O)cc(-c3c(C#N)cc4c(N5CC6CCC(C5)N6)nc(OCC5(CN6CCOCC6)CC5)nc4c3F)c12 (single isomer, unassigned)",26.8

# Biological target: GppNp-loaded HIS-KRAS (G12D, aa 1-169) / cRAF RBD (Homo sapiens, UniProt P01116, G12D)
# Experiment: GTP-KRAS and cRAF interaction assay
# Details: read-out: GTP-KRAS/cRAF interaction IC50, HTRF, 2 hours at 25° C., tested form: TFA
# Protocol: 2. GTP-KRAS and cRAF Interaction Assay
# GppNp-loaded HIS-KRAS (G12D, aa 1-169) was pre-incubated with a compound in the presence of 200 µM GTP in a 384-well plate (Greiner) for 15 min, then cRAF RBD (GST tag, aa 50-132, CreativeBioMart), MAb Anti GST-d2 (Cisbio) and MAb Anti 6HIS-Tb cryptate Gold (Cisbio) were added to the assay wells (Final concentration: 2.0 nM GppNp-loaded HIS-KRAS (G12D), 100 μM GTP, 35 nM cRAF RBD, 1 μg/mL MAb Anti GST-d2, 52.5 ng/mL MAb Anti 6HIS-Tb cryptate Gold) and incubated for 2 hours at 25° C. Wells containing same percent of DMSO served as vehicle control, and wells without KRAS served as low control. HTRF signals were read on Tecan Spark multimode microplate reader and HTRF ratios were calculated under manufacturer's instructions. The percent of activation of compounds treated wells were normalized between vehicle control and low control (% Activation=(HTRF ratioCompound treated−HTRF ratioLow control)/(HTRF ratioVehicle control−HTRF ratioLow control)*100). Then the data were analyzed either by fitting a 4-parameter logistic model or by Excel to calculate IC50 values.
row,Structure (SMILES),IC50 [nM]
1,C#Cc1cccc2cc(O)cc(-c3cc4nc(OCC5(CN6CCOCC6)CC5)nc(N5CC6CCC(C5)N6)c4cc3C3CC3)c12,220
2,CSc1cccc2cc(O)cc(-c3ccc4c(N5CC6CCC(C5)N6)nc(OCC5(CN6CCOCC6)CC5)nc4c3F)c12,330
3,C#Cc1cccc2cc(O)cc(-c3ccc4c(N5C6CCC5CNC6)nc(OCC5(CN6CCOCC6)CC5)nc4c3F)c12,269
4,C#Cc1ccc(F)c2cc(O)cc(-c3ccc4c(N5CC6CCC(C5)N6)nc(OCC5(CN6CCOCC6)CC5)nc4c3F)c12,176
5,C#Cc1c(C)ccc2cc(O)cc(-c3ccc4c(N5CC6CCC(C5)N6)nc(OCC5(CN6CCOCC6)CC5)nc4c3F)c12,99.8
6,"C#Cc1cccc2cc(O)cc(-c3c(C#N)cc4c(N5CC6CCC(C5)N6)nc(OCC5(CN6CCOCC6)CC5)nc4c3F)c12 (single isomer, unassigned)",89.4

# System: AGS
# Experiment: Cell growth inhibition assay (AGS)
# Details: read-out: AGS Cell growth inhibition IC50, 6 days incubation, CellTiter-Glo, tested form: TFA
# Protocol: (§1) 4. Cell Growth Inhibition Assay
# AGS cultured in F12K medium (Gibco) containing 10% fetal bovine serum (Gibco). Cells in culture medium were plated in 96-well plates at a concentration of 500 cells/well ([…]) and allowed to attach overnight.
# (§2) The next day, compounds were diluted in culture medium and added to the plates. After 6 days incubation in a 37° C./5% CO2 cell incubator, the cell viability was detected by CellTiter-Glo® Luminescent Cell Viability Assay kit (Promega). Luminescent signals were read on Tecan Spark multimode microplate reader and analyzed using a 4-parameter logistic model to calculate IC50 values.
row,Structure (SMILES),IC50 [nM]
1,C#Cc1cccc2cc(O)cc(-c3cc(F)c4c(N5CC6CCC(C5)N6)nc(OCC5(CN6CCOCC6)CC5)nc4c3F)c12,21.6
2,CSc1cccc2cc(O)cc(-c3ccc4c(N5CC6CCC(C5)N6)nc(OCC5(CN6CCOCC6)CC5)nc4c3F)c12,28.7
3,C#Cc1cccc2cc(O)cc(-c3ccc4c(N5C6CCC5CNC6)nc(OCC5(CN6CCOCC6)CC5)nc4c3F)c12,103
4,C#Cc1ccc(F)c2cc(O)cc(-c3ccc4c(N5CC6CCC(C5)N6)nc(OCC5(CN6CCOCC6)CC5)nc4c3F)c12,30.9
5,C#Cc1c(C)ccc2cc(O)cc(-c3ccc4c(N5CC6CCC(C5)N6)nc(OCC5(CN6CCOCC6)CC5)nc4c3F)c12,3.65
6,"C#Cc1cccc2cc(O)cc(-c3c(C#N)cc4c(N5CC6CCC(C5)N6)nc(OCC5(CN6CCOCC6)CC5)nc4c3F)c12 (single isomer, unassigned)",24.6

# System: AsPC-1
# Experiment: Cell growth inhibition assay (AsPC-1)
# Details: read-out: AsPC-1 Cell growth inhibition IC50; AsPC-1, 6 days incubation, CellTiter-Glo; tested form: TFA
# Protocol: as §1
# AsPC-1 cultured in RPMI-1640 medium (Gibco) containing 10% fetal bovine serum (Gibco). Cells in culture medium were plated in 96-well plates at a concentration of 1000 cells/well ([…]) and allowed to attach overnight.
# as §2
row,Structure (SMILES),IC50 [nM]
1,C#Cc1cccc2cc(O)cc(-c3cc(F)c4c(N5CC6CCC(C5)N6)nc(OCC5(CN6CCOCC6)CC5)nc4c3F)c12,61.2
2,CSc1cccc2cc(O)cc(-c3ccc4c(N5CC6CCC(C5)N6)nc(OCC5(CN6CCOCC6)CC5)nc4c3F)c12,118
3,C#Cc1cccc2cc(O)cc(-c3ccc4c(N5C6CCC5CNC6)nc(OCC5(CN6CCOCC6)CC5)nc4c3F)c12,80.3
4,C#Cc1ccc(F)c2cc(O)cc(-c3ccc4c(N5CC6CCC(C5)N6)nc(OCC5(CN6CCOCC6)CC5)nc4c3F)c12,60.7
5,C#Cc1c(C)ccc2cc(O)cc(-c3ccc4c(N5CC6CCC(C5)N6)nc(OCC5(CN6CCOCC6)CC5)nc4c3F)c12,15.9

# System: AGS cells expressing KRAS G12D
# Experiment: Phospho-ERK1/2(THR202/TYR204) HTRF assay
# Details: read-out: AGS p-ERK IC50, 2 hours incubation, tested form: TFA
# Protocol: AGS cells expressing KRAS G12D were cultured in F12K medium (Gibco) containing 10% fetal bovine serum (Gibco). The AGS cells in culture medium were seeded in 96-well plates at a concentration of 40,000 cells/well and then put in a 37° C./5% CO2 cell incubator to incubate overnight. The next day, culture medium was removed and the compound diluted in assay medium (F12K, 0.1% FBS) was added in each well. After 2 hours incubation in a 37° C./5% CO2 cell incubator, the assay medium in 96-well plates was removed, then 50 μL of 1× blocking reagent-supplemented lysis buffer (Cisbio) was added and the plates were incubated at 25° C. for 45 min with shaking. 10 μL of cell lysates from the 96-well plates were transferred to a 384-well plate (Greiner) containing 2.5 μL/well HTRF® pre-mixed antibodies (Cisbio 64AERPEH). Incubate 4 hours at 25° C. and then read HTRF signals on Tecan Spark multimode microplate reader. The data were analyzed using a 4-parameter logistic model to calculate IC50 values.
row,Structure (SMILES),IC50 [nM]
1,C#Cc1cccc2cc(O)cc(-c3cc(F)c4c(N5CC6CCC(C5)N6)nc(OCC5(CN6CCOCC6)CC5)nc4c3F)c12,16
2,C#Cc1ccc(F)c2cc(O)cc(-c3ccc4c(N5CC6CCC(C5)N6)nc(OCC5(CN6CCOCC6)CC5)nc4c3F)c12,15.3
3,C#Cc1c(C)ccc2cc(O)cc(-c3ccc4c(N5CC6CCC(C5)N6)nc(OCC5(CN6CCOCC6)CC5)nc4c3F)c12,6.32
4,"C#Cc1cccc2cc(O)cc(-c3c(C#N)cc4c(N5CC6CCC(C5)N6)nc(OCC5(CN6CCOCC6)CC5)nc4c3F)c12 (single isomer, unassigned)",7.85

# From US20240059710A1, “KRAS G12D Inhibitors” (Jacobio Pharmaceuticals Co., Ltd., priority 2020, published 2024)
